1 compound from patent US5559132A, “Carboxamide derivatives for treating asthma” (Zeneca Limited, priority 1993, dated 1996) can be followed below.

Chains of the proteins cited; added tags and fusions are not shown.
UniProt P21452, whole entry: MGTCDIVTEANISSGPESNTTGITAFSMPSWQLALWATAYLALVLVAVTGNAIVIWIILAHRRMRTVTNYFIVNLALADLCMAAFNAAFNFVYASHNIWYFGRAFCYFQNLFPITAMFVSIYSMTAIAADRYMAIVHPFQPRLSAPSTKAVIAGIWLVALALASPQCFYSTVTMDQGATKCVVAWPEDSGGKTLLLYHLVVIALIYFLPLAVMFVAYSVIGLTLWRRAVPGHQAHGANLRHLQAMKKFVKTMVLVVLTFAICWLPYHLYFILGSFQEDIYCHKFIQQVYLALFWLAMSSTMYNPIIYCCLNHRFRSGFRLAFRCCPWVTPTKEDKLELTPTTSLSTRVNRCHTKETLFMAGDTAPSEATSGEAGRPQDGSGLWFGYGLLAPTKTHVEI

This assay has as its target human NK2 receptor expressed in Mouse Erythroleukemia (MEL) cells (MELM) (Homo sapiens, UniProt P21452). In words: Neurokinin A (NKA) Receptor-binding Assay (Test A). The following applies: read-out: IC50 versus 3H-NKA binding to MELM; initial use of this assay; standard compound.

Take `CSCC[C@@H]1NC(=O)[C@H](CC(C)C)NC(=O)CNC(=O)[C@H](Cc2ccccc2)NC(=O)[C@H](Cc2c[nH]c3ccccc23)NC(=O)[C@H](CCC(N)=O)NC1=O`: the IC50 came out at 30 nM.
